Assay results as given in PubChem BioAssay (Tox21).
“And” between values parts separate entries of the source, which are not always exact repeats. Identical values can stand only once. These results got no clear call from the source, so the numbers are uncertain. Calls follow the shape of the full dose curve.

biological target: Beta-2 adrenergic receptor (Homo sapiens) (UniProt P07550); test: Adrenergic beta2 receptor (ADRB2) small molecule agonists, cell-based qHTS assay (AID 1963593); conditions: CHO-ADRB2 cells, cAMP HTRF, 30 min; activation: at 92.4 µM (top of the series) unless noted
From the text: National Center for Advancing Translational Sciences [NCATS]
Division of Preclinical Innovation [DPI]
U.S. Environmental Protection Agency [EPA]
National Institutes of Environmental Health Sciences [NIEHS]
National Toxicology Program [NTP]
U.S. Food and Drug Administration [FDA]
Beta adrenergic receptors (Beta-ARs) belong to the G-protein coupled receptor (GPCR) superfamily, includes three subtypes - beta1, beta2, and beta3. Beta1-AR is the predominant receptor subtype expressed in the heart, and beta2-AR is expressed in the kidney, lung, blood vessel and in the heart, and beta3 is found in the adipocytes. Beta1 and 2 ARs couple to Gs protein and elevate cyclic adenosine mono phosphate (cAMP), which activates protein kinase A and leads to the downstream signaling responsible for the physiological actions. Beta-AR agonists or antagonists are the most prescribed therapeutic agents for heart failure and asthma, and these were one of the first target receptors for the rational drug design. Tox21 10K compound library was screened using the cAMP-Gs dynamic assay (Cisbio Bioassays, Shelton, CT) to identify agonists/antagonists of the Gs-coupled human adrenergic, beta2 receptor (ADRB2) in the CHO-ADRB2 cell line (Codex BioSolutions, Inc. Gaithersburg, MD), which stably over-expresses ADRB2. The principle of cAMP-Gs dynamic assay is based on HTRF technology, which facilitates the fluorescence resonance energy transfer (FRET) between donor Europium cryptate and acceptor d2-labeled cAMP. The cAMP generated within cells competes with the red acceptor, d2-labled cAMP, for binding to the monoclonal anti-cAMP-cryptate (Europium donor). An increase in intracellular cAMP leads to the disruption of FRET signal, and the signal is inversely proportional to the cAMP concentration. Isoproterenol HCl (Sigma-Aldrich, St. Louis, MO) was used as a positive control in the screening.
Tox21 Assay Protocol Summary:
CHO-ADRB2 cells were dispensed at 1,000/well in 4uL assay medium into white/solid 1536-well plates (Greiner Bio-One North America Inc., Monroe, NC) using a Multidrop Combi dispenser (ThermoFisher Scientific, Waltham, MA). The assay plates were incubated at 37C and 5% CO2 for an overnight (18-20hr). Then positive control and test compounds dissolved in DMSO were transferred to the assay plates at 23nL using a Pintool station (Wako, San Diego, CA). Following the compound and positive control transfer, 1uL stimulation mix containing 100uM IBMX and 25uM Ro-20-1724 was added to each well of the assay plates using BioRAPTR Flying Reagent Dispenser (FRD, Beckman Coulter, Brea, CA). The assay plates were incubated at room temperature for 0.5hr. Then 2.5ul each d2-labled cAMP and anti-cAMP-cryptate solutions were added separately to each well of the assay plates using an FRD and the assay plates were incubated at room temperature for 1hr.
% is scaled to controls: 0 for no effect and ±100 for the full control effect; potency is read from the fitted curve at half-maximal effect.

| SMILES | activation | Potency |
| --- | --- | --- |
| O=C(Cl)OCCOC(=O)Cl | inconclusive: 4.11% | – |
| O=C1C2CC=CCC2C(=O)N1SC(Cl)(Cl)C(Cl)Cl (configuration not stated) | inconclusive: -28% and inconclusive: 7.43% | – |
| CCCCO[P+](=O)OCCCC | inconclusive: 19% | – |
| CN(C(=O)Cc1ccc(Cl)c(Cl)c1)[C@H]1CC[C@@]2(CCCO2)C[C@@H]1N1CCCC1 | inconclusive: 13.3% [at 42.5 µM] | – |
| O=[N+]([O-])c1ccc([N+](=O)[O-])cc1 | inconclusive: 15.4% | – |
| NC(=O)Nc1ccc([As](=O)(O)O)cc1 | inconclusive: 1.25% | – |
| CN(C(=O)Cc1cccc2occc12)[C@H]1CC[C@@]2(CCCO2)C[C@@H]1N1CCCC1 | inconclusive: -2.63% | – |
| Cc1cc([N+](=O)[O-])c(O)c([N+](=O)[O-])c1 | inconclusive: -66.4% | – |
| O=[p+]1oc2ccccc2c2ccccc21 (configuration not stated) | inconclusive: -10.3% | – |
| CN(C(=O)Cc1ccccc1)[C@H]1CC[C@@]2(CCCO2)C[C@@H]1N1CCCC1 | – | inconclusive: 668 nM |
| CCC(C)(OOC(C)(C)C)OOC(C)(C)C | inconclusive: -24.6% [at 19 µM] | – |
| O=[N+]([O-])c1ccc(S(=O)(=O)O)c([N+](=O)[O-])c1 | inconclusive: 11.1% | – |
